Legend:
FLG = assay: qPCR gene expression assay in differentiated primary keratinocytes: FLG; settings: pooled primary keratinocytes differentiated 72hrs with 1.2mM Ca2+, treated 24hrs, test compound concentration of 10µm; relative to housekeeper genes
Procedure: (§1) Barrier function and development are keys to proper skin function and health. A comparative series of gene assays were performed on barrier function related genes to show the performance of compounds of general formula (I) according to the present invention.
(§2) Primary keratinocytes from 5 donors were pooled and plated at 100,000 cells/well in 6 well plates. Cells were grown in KGM-Gold (Lonza) at 37°C, 5% CO2 and then differentiated for 72hrs via the addition of 1.2mM Ca^2+. Cells were then treated for 24hrs with fresh medium containing vehicle, or vehicle plus test compound, using a test compound concentration of 10µm. Following treatment any effect on cell viability was confirmed via an LDH assay on the culture media. The cells were washed in PBS and RNA isolated via QIAzol (QIAgen) following the manufacturer's instructions. RNA quantity and quality was measured via Nanodrop and bioanalyzer assessments ahead of qPCR assessment for the levels of specific gene products. Test genes were selected to cover various aspects of epidermal function and quantified relative to the levels of a control panel of housekeeper genes. A positive fold change (log2 FC) value indicates an increase of expression, while a negative fold change indicates a decrease in expression.

[1] = system: barrier function related genes; assay: qPCR gene expression assay in differentiated primary keratinocytes: all assayed genes together; settings: average over the nine test genes; keratinocytes treated 24hrs, test compound concentration of 10µm
Procedure: as §1, §2

ELOVL4 = assay: qPCR gene expression assay in differentiated primary keratinocytes: ELOVL4; settings: pooled primary keratinocytes differentiated 72hrs with 1.2mM Ca2+, treated 24hrs, test compound concentration of 10µm; relative to housekeeper genes
Procedure: as §1, §2

ALOX12B = assay: qPCR gene expression assay in differentiated primary keratinocytes: ALOX12B; settings: pooled primary keratinocytes differentiated 72hrs with 1.2mM Ca2+, treated 24hrs, test compound concentration of 10µm; relative to housekeeper genes
Procedure: as §1, §2

CERS3 = assay: qPCR gene expression assay in differentiated primary keratinocytes: CERS3; settings: pooled primary keratinocytes differentiated 72hrs with 1.2mM Ca2+, treated 24hrs, test compound concentration of 10µm; relative to housekeeper genes
Procedure: as §1, §2

KLK11 = assay: qPCR gene expression assay in differentiated primary keratinocytes: KLK11; settings: pooled primary keratinocytes differentiated 72hrs with 1.2mM Ca2+, treated 24hrs, test compound concentration of 10µm; relative to housekeeper genes
Procedure: as §1, §2

TGM1 = assay: qPCR gene expression assay in differentiated primary keratinocytes: TGM1; settings: pooled primary keratinocytes differentiated 72hrs with 1.2mM Ca2+, treated 24hrs, test compound concentration of 10µm; relative to housekeeper genes
Procedure: as §1, §2

CLDN1 = assay: qPCR gene expression assay in differentiated primary keratinocytes: CLDN1; settings: pooled primary keratinocytes differentiated 72hrs with 1.2mM Ca2+, treated 24hrs, test compound concentration of 10µm; relative to housekeeper genes
Procedure: as §1, §2

KRT10 = assay: qPCR gene expression assay in differentiated primary keratinocytes: KRT10; settings: pooled primary keratinocytes differentiated 72hrs with 1.2mM Ca2+, treated 24hrs, test compound concentration of 10µm; relative to housekeeper genes
Procedure: as §1, §2

LOR = assay: qPCR gene expression assay in differentiated primary keratinocytes: LOR; settings: pooled primary keratinocytes differentiated 72hrs with 1.2mM Ca2+, treated 24hrs, test compound concentration of 10µm; relative to housekeeper genes
Procedure: as §1, §2

Structure (SMILES)	Test Gene FLG log2 FC (FLG)	Average log2 FC [1]	Test Gene ELOVL4 log2 FC (ELOVL4)	Test Gene ALOX12B log2 FC (ALOX12B)	Test Gene CERS3 log2 FC (CERS3)	Test Gene KLK11 log2 FC (KLK11)	Test Gene TGM1 log2 FC (TGM1)	Test Gene CLDN1 log2 FC (CLDN1)	Test Gene KRT10 log2 FC (KRT10)	Test Gene LOR log2 FC (LOR)
COc1ccc(NC(=O)c2cccc(NC(=O)c3ccccc3)c2)cc1	0.482 log2 FC	0.420 log2 FC	0.301 log2 FC	0.277 log2 FC	0.424 log2 FC	0.342 log2 FC	0.497 log2 FC	0.416 log2 FC	0.476 log2 FC	0.567 log2 FC
COc1cccc(NC(=O)c2ccc(C)cc2)c1	0.775 log2 FC	0.537 log2 FC	0.583 log2 FC	0.165 log2 FC	0.558 log2 FC	0.224 log2 FC	0.596 log2 FC	0.459 log2 FC	0.892 log2 FC	0.583 log2 FC

From patent EP4701613B1, “COSMETIC USES FOR MAINTAINING AND RESTORING SKIN BARRIER FUNCTION” (dated 2026)
